According to BindingDB's records for doi:10.1016/j.bmcl.2016.02.067 (Pfizer, 2016):
pIC50: −log10 of the molar value.

Assays:
[1] = Inhibition of EGFR L858R mutant in human H3255 cells assessed as suppression of cell proliferation
[2] = Inhibition of EGFR Del ex19 mutant in human HCC827 cells assessed as suppression of cell proliferation
[3] = Inhibition of EGFR L858R/T790M double mutant in human NCI-H1975 cells assessed as suppression of cell proliferation

Cc1cc(C(=O)Nc2nc3cccc(Cl)c3n2[C@@H]2CCCCN(C(=O)/C=C/CN(C)C)C2)ccn1
pIC50 [1]: 8.05
pIC50 [2]: 7.96
pIC50 [3]: 7.60
